Biological target: Proteasome subunit beta type-5 (Homo sapiens, UniProt P28074)
Test: Inhibition of beta5 proteasome (unknown origin)

The chains behind the UniProt entries cited, without tags or fusion partners. Where a name states a change or a piece, a line headed by the entry shows the natural chain unless it says otherwise.
UniProt P28074: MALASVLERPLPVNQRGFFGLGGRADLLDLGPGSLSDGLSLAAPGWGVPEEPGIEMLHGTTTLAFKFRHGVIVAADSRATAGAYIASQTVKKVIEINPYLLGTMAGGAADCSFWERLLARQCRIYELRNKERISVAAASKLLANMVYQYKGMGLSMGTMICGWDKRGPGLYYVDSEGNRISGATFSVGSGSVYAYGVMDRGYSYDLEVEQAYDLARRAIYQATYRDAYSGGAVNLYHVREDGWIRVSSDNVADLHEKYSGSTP

`CC(C)C[C@H](NC(=O)CNC(=O)c1cc(Cl)ccc1Cl)B(O)O` gave an IC50 of 3.4 nM.
